Test system: Cc1ncc(COP(=O)(O)O)c(C=O)c1O
Test: purified protein
Conditions: L-Met 20 mM, 50 mM Tris-HCl pH 8.0, 20 °C, varied: cofactor

Substance: yMGL-ΔCTD (Yarrowia lipolytica CLIB122; DEL253-380)
- Km: 1.65 ± 0.00 µM
- kcat: 0.01 ± 0.00 s⁻¹

Source: paper doi:10.1101/2025.07.27.667015v3 (biorxiv, 2025)
